Results reported in patent publication US8852928B2, “LexA-based chemical-inducible gene expression system for use in transgenic animals” (Temasek Life Sciences Laboratory Limited, priority 2007, dated 2014).

Biological target: T1, chimeric transcription factor consisting of Gal4 DNA binding domain, truncated human progesterone receptor ligand binding domain and NF-κB activation domain (Homo sapiens, UniProt P06401)
T1 sequence (P06401 640-914): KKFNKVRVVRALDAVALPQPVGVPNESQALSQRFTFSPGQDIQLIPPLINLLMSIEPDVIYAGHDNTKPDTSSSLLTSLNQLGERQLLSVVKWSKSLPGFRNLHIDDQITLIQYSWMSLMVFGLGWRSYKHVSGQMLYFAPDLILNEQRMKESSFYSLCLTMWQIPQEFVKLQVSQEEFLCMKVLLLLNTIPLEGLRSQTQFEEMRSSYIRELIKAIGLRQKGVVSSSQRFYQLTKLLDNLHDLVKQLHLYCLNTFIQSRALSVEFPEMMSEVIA
Assay: Gal4/UAS-based mifepristone-inducible system in transgenic fish (SWD-G4 line)
Settings: 1 μM at 10 hpf onwards

SMILES: CC#C[C@]1(O)CC[C@H]2[C@@H]3CCC4=CC(=O)CCC4=C3[C@@H](c3ccc(N(C)C)cc3)C[C@@]21C [mifepristone]
- Developmental phenotypes in fish harboring Gal4/UAS-based mifepristone-inducible system: exhibited developmental phenotypes only upon induction
